# Test results as given in patent publication US9505726B2, “Substituted biphenyl amides as P2X3 and P2X2/3 antagonists” (Roche Palo Alto LLC, priority 2009, dated 2016).
# By UniProt entry, the sequences of proteins in these tests, tags left out.
# UniProt P49654, whole entry: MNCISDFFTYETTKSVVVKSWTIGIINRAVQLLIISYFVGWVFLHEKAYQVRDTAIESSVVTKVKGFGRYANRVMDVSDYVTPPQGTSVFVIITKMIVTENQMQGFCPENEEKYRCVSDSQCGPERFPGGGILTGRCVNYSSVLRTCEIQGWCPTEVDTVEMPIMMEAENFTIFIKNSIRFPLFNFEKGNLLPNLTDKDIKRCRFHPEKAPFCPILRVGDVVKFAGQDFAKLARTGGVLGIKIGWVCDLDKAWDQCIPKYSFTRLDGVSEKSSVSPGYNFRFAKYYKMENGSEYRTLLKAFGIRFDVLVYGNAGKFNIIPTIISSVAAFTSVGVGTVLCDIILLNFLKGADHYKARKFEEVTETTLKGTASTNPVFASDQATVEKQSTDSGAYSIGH
# Molecular target: rat P2X3 receptor (Rattus norvegicus, UniProt P49654)
# Assay: P2X3 FLIPR (Fluorometric Imaging Plate Reader) assay
# Conditions: CHO-K1 cells transfected with cloned rat P2X3; agonist α,β-meATP 1 μM; Fluo-3 AM calcium fluorescence
row,Compound,P2X3 (pIC50 values for the P2X3 receptor)
1,Cc1ccc(-c2cc(C(=O)NCc3cnc(C)cn3)cc(N(C)C(=O)C(C)C)c2)nc1,8.36
2,Cc1ccc(-c2cc(C(=O)NCc3cnc(C)cn3)cc(N(C)C(=O)C3(C)COC3)c2)nc1,7.09
